Measured values: patent US20240238440A1, “PREPARATION METHOD FOR AND APPLICATION OF ANTIBODY CONJUGATED DRUG” (HYSLINK THERAPEUTICS, priority 2021, published 2024)

What was measured:
[1] = test system: breast cancer with low HER2 expression; settings: DS8201-A-J101 clinical study; cited from earlier work
[2] = in vivo; cited from earlier work
[3] = test system: COLO205 human colon cancer cells; assay: In vivo anti-tumor experiment (1), COLO205 xenograft; set-up: species or system nude mice; settings: COLO205, low HER2; intravenous day 0; 3 mg/kg and 10 mg/kg (Kadcyla 10 mg/kg); FIG. 29
Method: The efficacy of the combination of the present invention can be measured in vivo, i.e., an allograft or xenograft of cancer cells was implanted in rodents, and the tumors were treated with the combination. Test mice were treated with drugs or controls and monitored for several weeks or longer to measure the time to tumor doubling, log cell killing, and tumor inhibition.
COLO205 human colon cancer cells (ATCC) with low expression of HER2 were suspended in physiological saline. 4×10^7 cells were subcutaneously transplanted into the right flank of female nude mice, which were randomized into groups on day 6. […] As a control group, a PBS buffer-administered group was set.
It should be noted that, regarding the expression of HER2 in tumors, the results obtained by the determination based on immunohistochemical staining classified those with a score of 3+ as high expression, those with a score of 2+ as medium expression, and those with a score of 1+ as low expression.

Row | Substance | confirmed objective response rate (ORRs) [1] [%] | side effects [2] | tumor growth inhibitory activity [3]
1 | Enhertu | 37.0 | pneumonia and interstitial lung disease | –
2 | Kadcyla | – | – | did not show tumor growth inhibitory activity
